Reference: ChEMBL document CHEMBL3763153, “Recent Update on Human Lactate Dehydrogenase Enzyme 5 (hLDH5) Inhibitors: A Promising Approach for Cancer Chemotherapy” (J Med Chem, 2016)

Sequences of proteins named here, by UniProt entry; tags and fusion partners are left off.
UniProt P07195, whole entry: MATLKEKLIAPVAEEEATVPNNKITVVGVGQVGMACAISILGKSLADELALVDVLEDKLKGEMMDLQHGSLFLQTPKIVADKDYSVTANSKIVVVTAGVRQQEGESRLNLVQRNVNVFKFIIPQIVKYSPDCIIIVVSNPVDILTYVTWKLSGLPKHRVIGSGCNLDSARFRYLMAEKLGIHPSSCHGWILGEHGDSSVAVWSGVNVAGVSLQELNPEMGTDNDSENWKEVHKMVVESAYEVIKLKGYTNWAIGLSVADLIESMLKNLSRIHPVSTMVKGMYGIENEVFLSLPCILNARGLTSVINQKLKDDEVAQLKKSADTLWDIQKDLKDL

Biological target: L-lactate dehydrogenase B chain (Homo sapiens, UniProt P07195)

**Q.** Cc1cc2c(C(C)C)c(O)c(O)c(C=O)c2c(O)c1-c1c(C)cc2c(C(C)C)c(O)c(O)c(C=O)c2c1O [GOSSYPOL] was tested. Which Ki did it give?
**A.** The Ki was 1400 nM.
